In published antibiotic growth screens (doi:10.1038/s41589-023-01349-8):
The other results are listed elsewhere or left out.

These compounds were tested on A. baumannii ATCC 17978 (assay: relative growth (fraction of control); higher = less inhibition). Conditions: 50 µM.
In the case of `CCS(=O)(=O)Nc1ccc2c(c1)C(=O)N(C)C[C@@H](OC)[C@@H](C)CN(Cc1ccccn1)[C@H](C)CO2`, the relative growth is reported as 0.937. For `Cc1cn2c(nc1=O)O[C@@H]1C[C@H]2O[C@@H]1CO`, the relative growth was 1.02. In the case of `CCC(=O)c1ccc(O)cc1`, the relative growth is reported as 0.965. For `C[C@H]1CC2C([C@@H](O)C[C@@]3(C)C2CC[C@]3(O)C(=O)COC(=O)CCC(=O)[O-])[C@@]2(C)C=CC(=O)C=C12.[Na+]` (some centres not stated), the relative growth was 0.958. Compound `Oc1ccc(Cl)c2cccnc12` has a relative growth of 0.182. With `C=C1[C@H](CO)[C@@H](O)C[C@@H]1n1cnc2c(=O)[nH]c(N)nc21.O` the relative growth was 1.03. Compound `Nc1ncnc(NCc2cccnc2)c1[N+](=O)[O-]` has a relative growth of 0.918. `C[C@H]1[C@H](C)CC[C@]2(C(=O)O)CC[C@]3(C)C(=CCC4[C@@]5(C)C[C@@H](O)[C@H](O)[C@@](C)(CO)C5[C@H](O)C[C@]43C)[C@H]12` (some centres not stated) showed a relative growth of 0.797. `O=C1NC(=O)[C@@H](c2ccccc2)N1` showed a relative growth of 0.89. `COc1cc(O)c2c(=O)c(O)c(-c3ccc(O)c(O)c3)oc2c1` was tested, and the relative growth was 0.937. `CC(=O)NO` showed a relative growth of 1.11. `O=C(CN1CCOCC1)N[C@@H]1CC[C@@H](CCn2cc(C3CCCC3)nn2)O[C@H]1CO` was tested, and the relative growth was 0.975. `CC(=O)N[C@@H](CCC(N)=O)C(=O)O` showed a relative growth of 0.968. `COc1ccc(-c2c(O)c3c(OC)c4c(cc3oc2=O)OC(C)(C)C=C4)cc1` showed a relative growth of 0.965. `C[C@@H](O)[C@@H](O)[C@H]1CNc2[nH]c(N)nc(=O)c2N1` showed a relative growth of 0.959. `C=CC[C@H](CC(=O)NCCO)C(=O)NC[C@H](OC(=O)[C@H](CC=C)CC(=O)OC(C)(C)C)c1ccccc1` showed a relative growth of 0.765. `CC(C)(C)N1C[C@H](C(=O)O)CC1=O` gave a relative growth of 1.07. With `CC(C)(Oc1ccc(Cl)cc1)C(=O)O` the relative growth was 1.15. `C[C@@H]1CN([C@@H](C)CO)C(=O)CCCn2nncc2CO[C@H]1CN(C)C(=O)Nc1ccc(N2CCN(C)CC2)cc1` was tested, and the relative growth was 1.01. `COCC(=O)N1C[C@@H](C)[C@@H](OC)CN(C)C(=O)c2cc(NC(=O)c3ccc(OC)cc3)ccc2OC[C@@H]1C` was tested, and the relative growth was 1. With `O=c1[nH]cnc2c1ncn2C1CC[C@@H](CO)O1` (some centres not stated) the relative growth was 1.07. For `C[C@H]1CN([C@@H](C)CO)S(=O)(=O)c2ccc(C#Cc3ccc(F)cc3)cc2O[C@H]1CN(C)S(C)(=O)=O`, the relative growth was 1.03. In the case of `Cc1nc2c(C)cc(N)cn2n1`, the relative growth is reported as 0.971. `Cc1ccc(CNc2ccc3c(c2)ncn3C2CCCCC2)cc1` gave a relative growth of 0.804. For `CC(C)NC(=O)N[C@H]1C=C[C@@H](CC(=O)NCCN2CCCC2)O[C@@H]1CO`, the relative growth was 1.04. `COc1ccc(NC(=O)N[C@@H]2CC[C@H](CCNC(=O)CN3CCOCC3)O[C@H]2CO)cc1` showed a relative growth of 0.809. In the case of `O=C(C[C@H]1C[C@H]2c3cc(NC(=O)c4ccc5c(c4)OCO5)ccc3O[C@H]2[C@H](CO)O1)NCCN1CCCCC1`, the relative growth is reported as 1. In the case of `O=C1c2ccccc2[C@](Cc2ccccc2I)(C(=O)NCc2ccccc2)[C@H](c2ccc(CO)cc2)N1C1CCCCC1`, the relative growth is reported as 1.16. `NCC1CCC(C(=O)O)CC1` (configuration not stated) was tested, and the relative growth was 0.94. With `CCCCCCCCCCC[C@@H](C[C@@H]1OC(=O)[C@H]1CCCCCC)OC(=O)[C@H](CC(C)C)NC=O` the relative growth was 1.08. `C=CCNC(=O)C(=O)NC[C@H]1OCCCN1S(=O)(=O)c1ccccc1` showed a relative growth of 1.12. With `CN(C)C(=O)C[C@@H]1CC[C@H](NC(=O)C2CC2)[C@H](CO)O1` the relative growth was 0.905. `C=C(C(=O)O[C@H]1CC=C(C)C[C@H](O)[C@H]2[C@H](C)C(=O)O[C@@H]2/C=C/1C)[C@@H]1CCC(=C)[C@@H]2C[C@H](O[C@@H]3O[C@H](COC(=O)CC(=O)O)[C@@H](O)[C@H](O)[C@H]3O)C(=C)[C@@H]2C1` showed a relative growth of 1.09. With `C=CCOC(=O)[C@@H]1[C@H]2C(=O)O[C@H](c3ccccc3)[C@H](c3ccccc3)N2[C@H](c2ccc(OCCOC(=O)[C@@H]3C[C@@H]4C(=O)NCC(=O)N4[C@@H]3c3cccc(OCCO)c3)cc2)[C@@]12C(=O)Nc1ccccc12` the relative growth was 1.16. With `CN(C)C(=O)c1cccc(-c2cccc(-c3nc(C(=O)N4CCCCC4)cc4c3[C@@H](CCO)N([S@](=O)C(C)(C)C)C4)c2)c1` the relative growth was 1.06. With `Cn1c(=O)c2c(ncn2CC(=O)O)n(C)c1=O` the relative growth was 1.02. `O=C(C[C@H]1CC[C@@H](NS(=O)(=O)c2ccc(F)cc2)[C@@H](CO)O1)NCc1ccc(Cl)c(Cl)c1` gave a relative growth of 0.9. Work on `COc1cc(C/C=C/c2ccccc2)c(OC)cc1O` yielded a relative growth of 0.939. `C[C@H](O)C#Cc1ccc2c(c1)O[C@H](CN(C)C(=O)Cc1ccccn1)[C@@H](C)CN([C@@H](C)CO)S2(=O)=O` gave a relative growth of 1.11. For `O=C(C[C@@H]1CC[C@@H]2[C@H](COC[C@@H](O)CN2S(=O)(=O)c2ccc(Cl)cc2)O1)NCCN1CCCC1`, the relative growth was 0.962. With `C=C1C(=O)O[C@@H]2[C@H]3O[C@]3(C)CC/C=C(\C)CC[C@@H]12` the relative growth was 0.873. Compound `COc1ccc(S(=O)(=O)N(C)C[C@H]2Oc3cc(C#CC4CC4)ccc3S(=O)(=O)N([C@@H](C)CO)C[C@H]2C)cc1` has a relative growth of 1.09. `O=C(O)CCCN1C(=O)c2cccc3cccc(c23)C1=O` showed a relative growth of 1.06. In the case of `CCn1c2c(ccc1=O)C[C@H](N)CC2`, the relative growth is reported as 0.958. With `COc1ccccc1C#Cc1ccc2c(c1)O[C@H](CN(C)Cc1cncnc1)[C@H](C)CN([C@H](C)CO)S2(=O)=O` the relative growth was 0.869. With `O=S(=O)(Cc1ccccc1)Nn1cnnc1` the relative growth was 0.898. In the case of `O=C(O)C1CSCN1` (configuration not stated), the relative growth is reported as 0.914. For `Clc1ccc(C2=Nc3cccc4cccc(c34)N2)cc1`, the relative growth was 1.07. For `NCCC[C@H](N)CC(=O)NC1CNC(=O)[C@H]([C@H]2C[C@H](O)NC(N)=N2)NC(=O)/C(=C/NC(N)=O)NC(=O)[C@H](CO)NC(=O)[C@H](CO)NC1=O.O=S(=O)(O)O` (some centres not stated), the relative growth was 0.88. With `C=C1[N-]O[N+](O)=C1CN(Cc1c(C)no[n+]1[O-])OC(C)=O` the relative growth was 0.9. `Cc1ccc(-c2noc([C@H](C)c3ccc(CC(C)C)cc3)n2)cc1` was tested, and the relative growth was 0.964. In the case of `N#C/C(=C\c1cccs1)c1csc2ccc(Cl)cc12`, the relative growth is reported as 1.02. `Nc1nc(-c2ccccc2)cc[n+]1[O-]` gave a relative growth of 1.12. For `CNC(=O)c1cc(S(=O)(=O)N(C)C[C@@H]2Oc3ccc(NC(=O)Nc4ccc(C#N)cc4)cc3CC(=O)N([C@@H](C)CO)C[C@@H]2C)cs1`, the relative growth was 1.01. Work on `CC[C@H](C)C(=O)O[C@H]1CCC=C2C=C[C@H](C)C(CCC3C[C@@H](O)CC(=O)O3)[C@H]21` (some centres not stated) yielded a relative growth of 1.02. Compound `CC(=O)NCCCC[C@@H]1NC(=O)[C@H]2C[C@@H](C(=O)NCCCCCN)[C@@H](c3cccc(OCCO)c3)N2C1=O` has a relative growth of 1.13. Work on `COc1ccc(/C=C/C(=O)O[C@@H]2[C@@H](O)[C@H](C)O[C@@H](O[C@H]3[C@@H]4C=CO[C@@H](O[C@H]5O[C@@H](CO)[C@H](O)[C@@H](O)[C@@H]5O)[C@@H]4[C@@]4(CO)O[C@@H]34)[C@@H]2OC(C)=O)cc1` yielded a relative growth of 1.18. For `Cc1cc(NS(=O)(=O)c2ccc(N)cc2)nc(C)n1`, the relative growth was 1.47. Compound `COCC(=O)N(C)C[C@H]1Oc2cc(C#CC(C)(C)O)ccc2S(=O)(=O)N([C@H](C)CO)C[C@@H]1C` has a relative growth of 1.08. In the case of `COC(=O)c1c2oc(c1C(=O)OC)C(=O)N[C@@H](Cc1ccccc1)Cn1cc(nn1)CNC(=O)[C@H](Cc1ccccc1)NC(=O)N[C@@H](CO)CC2`, the relative growth is reported as 1.07. `CCCCCCCCCCCCCCCCOP(=O)([O-])OCC[N+](C)(C)C` was tested, and the relative growth was 0.891. Compound `Cc1ccc2sc(C(=O)O)cc2c1` has a relative growth of 1.05. In the case of `COc1cccc(S(=O)(=O)N2C[C@@H](O)COC[C@@H]3O[C@@H](CC(=O)N4CCN(C)CC4)CC[C@H]32)c1`, the relative growth is reported as 0.998. Work on `COc1cc(C(C)=O)ccc1O` yielded a relative growth of 0.911. In the case of `O=C(N[C@H]1CC[C@@H](CC(=O)N2CCOCC2)O[C@@H]1CO)c1ccc2c(c1)OCO2`, the relative growth is reported as 0.864. `COCCOC(=O)N1C(=O)[C@@]2(c3cc(C#CCC(C(=O)OC)C(=O)OC)ccc31)[C@H](C(=O)Nc1nc3ccccc3s1)[C@H]1C(=O)O[C@H](c3ccccc3)[C@H](c3ccccc3)N1[C@@H]2c1ccccc1OCCO` was tested, and the relative growth was 1.07. Work on `N=C(CN1CCCCC1)NO` yielded a relative growth of 1.11. For `O=C(N1CCOCC1)[C@]1(CCS(=O)(=O)c2ccccc2)N=C(c2ccc(OCCCO)cc2)O[C@@H]1c1ccccc1`, the relative growth was 0.684. `Cc1ccc(NC(=N)N=C(N)N)c(C)c1` showed a relative growth of 0.834. For `N#CCNC(=O)CN1C(=O)c2ccccc2C1=O`, the relative growth was 0.942. `C[C@]1(C(=O)NCc2ccccc2)c2ccccc2C(=O)N(Cc2ccccc2)[C@H]1c1ccc(COC(=O)NCCCCCC(=O)NO)cc1` gave a relative growth of 0.807. With `C[C@@H]1CN([C@@H](C)CO)S(=O)(=O)c2ccc(C#Cc3ccccc3)cc2O[C@H]1CN(C)S(=O)(=O)c1ccccc1F` the relative growth was 1.06. In the case of `C[N+]1(C)CCC(OC(=O)C(O)(c2ccccc2)C2CCCC2)C1.[Br-]` (configuration not stated), the relative growth is reported as 0.835. Compound `O=C(O)C[C@@H](C(=O)O)[C@H](O)c1ccccc1` has a relative growth of 1.07. Work on `O=C(C[C@H]1C[C@@H]2c3cc(NC(=O)NC4CCCC4)ccc3O[C@@H]2[C@H](CO)O1)NCc1ccc2c(c1)OCO2` yielded a relative growth of 0.948. Compound `O=C(C[C@H]1C=C[C@@H](NC(=O)Nc2cc(F)ccc2F)[C@@H](CO)O1)NCCCN1CCOCC1` has a relative growth of 0.997. `C[C@H]1CN([C@@H](C)CO)S(=O)(=O)c2ccc(C#CCN(C)C)cc2O[C@@H]1CN(C)S(=O)(=O)c1cccc(F)c1` gave a relative growth of 1.05. `O=c1c(O)cc([C@H]2Oc3cc(O)cc(O)c3C[C@H]2O)cc2c([C@H]3Oc4cc(O)cc(O)c4C[C@H]3O)cc(O)c(O)c12` was tested, and the relative growth was 0.87. Work on `COc1ccc(NC(=O)N[C@@H]2CC[C@@H](CCNC(=O)CN3CCOCC3)O[C@@H]2CO)cc1` yielded a relative growth of 1.01. `CO[C@H]1CN(C)C(=O)c2cc(NS(=O)(=O)c3ccccc3C)ccc2OC[C@@H](C)N(S(C)(=O)=O)C[C@@H]1C` showed a relative growth of 1.15. `NCC[C@@H]1CC[C@@H](NC(=O)Nc2ccc(F)cc2)[C@@H](CO)O1` gave a relative growth of 0.982. `CCN(CC)CCNc1ccc(CO)c2sc3ccccc3c(=O)c12` was tested, and the relative growth was 0.946.
